The values that follow are results of earlier work, collected in PMC10094977.

Data set [1] addresses Cav1.2 alpha1C preIQ (CB domain) preIQ (UniProt Q13936).
Data set [2] deals with Cav1.2 alpha1C IQ domain IQ (UniProt Q13936).
A further data set concerns the target Cav1.3 channel (UniProt Q01668).
Data set [3] addresses Cav1.2 IQ' peptide 1650-1675 (Oryctolagus cuniculus) (UniProt P15381). As to the kind of experiment: fluorescence anisotropy. In general terms: Fluorescence polarisation rises when a labelled molecule tumbles more slowly, as on binding a larger partner.
The target of data set [4] is Cav1.2 preIQ-A peptide 1588-1609 (Oryctolagus cuniculus) (UniProt P15381). As to the kind of experiment: fluorescence anisotropy.
The target in data set [5] is Cav1.2 preIQ-C peptide 1614-1635 (Oryctolagus cuniculus) (UniProt P15381). In words: fluorescence anisotropy.
For data set [6], the target named is Cav1.2 IQ peptide 1644-1670 (Oryctolagus cuniculus) (UniProt P15381). In words: fluorescence anisotropy.

By Kd is commonly meant the concentration at which binding is half-saturated. For the substance Calmodulin (from UniProt P0DP23), the dissociation constant Kd is 12 nM in data set [1], 40 nM in data set [2] and 10 nM in the data set with Cav1.3 channel.

As to Ca2+/calmodulin (from UniProt P0DP23), the Kd in data set [3], in data set [4], in data set [5] and in data set [6] was below 2 nM throughout.

With apocalmodulin (from UniProt P0DP23), the Kd in data set [3] is above 10000 nM; in data set [4], above 10000 nM; in data set [5], above 10000 nM; in data set [6] it was 14000 nM.
